Where a chain is given by its changes, count along the chain named.
B1: Beta-lactamase SHV-1 (Klebsiella pneumoniae), P0AD64 (protein)
chain: MRYIRLCIISLLATLPLAVHASPQPLEQIKLSESQLSGRVGMIEMDLASGRTLTAWRADERFPMMSTFKVVLCGAVLARVDAGDEQLERKIHYRQQDLVDYSPVSEKHLADGMTVGELCAAAITMSDNSAANLLLATVGGPAGLTAFLRQIGDNVTRLDRWETELNEALPGDARDTTTPASMAATLRKLLTSQRLSARSQRQLLQWMVDDRVAGPLIRSVLPAGWFIADKTGAGERGARGIVALLGPNNKAERIVVIYLRDTPASMAERNQQIAGIGAALIEHWQR
B2: Beta-lactamase SHV-55 (Klebsiella pneumoniae), Q4TVR4 (protein)
chain: B1 chain with Y3F, G234S, E235K

How the values were obtained:
[1] = substrate: CO/N=C(\C(=O)N[C@@H]1C(=O)N2C(C(=O)O)=C(COC(C)=O)CS[C@H]12)c1csc(N)n1; assay: (§1) Activity of Klebsiella pneumoniae Beta-Lactamase SHV-1
[2] = substrate: CC1(C)S[C@@H]2[C@H](NC(=O)[C@H](N)c3ccc(O)cc3)C(=O)N2[C@H]1C(=O)O; assay: as §1
[3] = substrate: CC(C)(O/N=C(\C(=O)N[C@@H]1C(=O)N2C(C(=O)[O-])=C(C[n+]3ccccc3)CS[C@H]12)c1csc(N)n1)C(=O)O; assay: as §1
[4] = substrate: CC(=O)OCC1=C(C(=O)O)N2C(=O)[C@@H](NC(=O)Cc3cccs3)[C@H]2SC1; assay: Ratio of Kcat to Km for Klebsiella pneumoniae Beta-Lactamase SHV-1
[5] = substrate: CO/N=C(\C(=O)N[C@@H]1C(=O)N2C(C(=O)O)=C(COC(C)=O)CS[C@H]12)c1csc(N)n1; assay: (§2) Activity of Klebsiella pneumoniae Beta-Lactamase SHV-55
[6] = substrate: CC1(C)S[C@@H]2[C@H](NC(=O)[C@H](N)c3ccc(O)cc3)C(=O)N2[C@H]1C(=O)O; assay: as §2
[7] = substrate: CO/N=C(\C(=O)N[C@@H]1C(=O)N2C(C(=O)O)=C(COC(N)=O)CS[C@H]12)c1ccco1; assay: as §2
[8] = substrate: CC(C)(O/N=C(\C(=O)N[C@@H]1C(=O)N2C(C(=O)[O-])=C(C[n+]3ccccc3)CS[C@H]12)c1csc(N)n1)C(=O)O; assay: as §2
[9] = substrate: CC(=O)OCC1=C(C(=O)O)N2C(=O)[C@@H](NC(=O)Cc3cccs3)[C@H]2SC1; assay: as §2
[10] = substrate: CC1(C)S[C@@H]2[C@H](NC(=O)Cc3ccccc3)C(=O)N2[C@H]1C(=O)O; assay: as §2
[11] = substrate: CO/N=C(\C(=O)N[C@@H]1C(=O)N2C(C(=O)O)=C(COC(C)=O)CS[C@H]12)c1csc(N)n1; assay: (§3) Ratio of Kcat to Km for Klebsiella pneumoniae Beta-Lactamase SHV-55
[12] = substrate: CC1(C)S[C@@H]2[C@H](NC(=O)[C@H](N)c3ccc(O)cc3)C(=O)N2[C@H]1C(=O)O; assay: as §3
[13] = substrate: CC(C)(O/N=C(\C(=O)N[C@@H]1C(=O)N2C(C(=O)[O-])=C(C[n+]3ccccc3)CS[C@H]12)c1csc(N)n1)C(=O)O; assay: as §3
[14] = substrate: CC(=O)OCC1=C(C(=O)O)N2C(=O)[C@@H](NC(=O)Cc3cccs3)[C@H]2SC1; assay: as §3

Row | Protein | Km [1] [µM] | kcat [1] [s⁻¹] | kcat [2] [s⁻¹] | Km [3] [µM] | kcat [3] [s⁻¹] | kcat/Km [4] [M⁻¹ s⁻¹] | Km [5] [µM] | kcat [5] [s⁻¹] | Km [6] [µM] | kcat [6] [s⁻¹] | Km [7] [µM] | Km [8] [µM] | kcat [8] [s⁻¹] | Km [9] [µM] | kcat [9] [s⁻¹] | kcat [10] [s⁻¹] | kcat/Km [11] [M⁻¹ s⁻¹] | kcat/Km [12] [M⁻¹ s⁻¹] | kcat/Km [13] [M⁻¹ s⁻¹] | kcat/Km [14] [M⁻¹ s⁻¹]
1 | B1 | 257 | < 0.1 | 1040 | 142 | < 0.1 | 3.2e+06 | – | – | – | – | – | – | – | – | – | – | – | – | – | –
2 | B2 | – | – | – | – | – | – | 21 | 24 | 10 | 23 | 23 | 58 | 9 | 9 | 38 | 23 | 1.1e+06 | 2.5e+06 | 200000 | 4.4e+06

Reference: ChEMBL document CHEMBL1255339, “Biochemical characterization of SHV-55, an extended-spectrum class A beta-lactamase from Klebsiella pneumoniae” (Antimicrob Agents Chemother, 2008)
